Source: US12139487B2, “Compounds and uses thereof” (Foghorn Therapeutics Inc., priority 2022, dated 2024)

Protein sequences, listed by entry. Tags and fused reporters are not part of them.
UniProt P51531, whole entry: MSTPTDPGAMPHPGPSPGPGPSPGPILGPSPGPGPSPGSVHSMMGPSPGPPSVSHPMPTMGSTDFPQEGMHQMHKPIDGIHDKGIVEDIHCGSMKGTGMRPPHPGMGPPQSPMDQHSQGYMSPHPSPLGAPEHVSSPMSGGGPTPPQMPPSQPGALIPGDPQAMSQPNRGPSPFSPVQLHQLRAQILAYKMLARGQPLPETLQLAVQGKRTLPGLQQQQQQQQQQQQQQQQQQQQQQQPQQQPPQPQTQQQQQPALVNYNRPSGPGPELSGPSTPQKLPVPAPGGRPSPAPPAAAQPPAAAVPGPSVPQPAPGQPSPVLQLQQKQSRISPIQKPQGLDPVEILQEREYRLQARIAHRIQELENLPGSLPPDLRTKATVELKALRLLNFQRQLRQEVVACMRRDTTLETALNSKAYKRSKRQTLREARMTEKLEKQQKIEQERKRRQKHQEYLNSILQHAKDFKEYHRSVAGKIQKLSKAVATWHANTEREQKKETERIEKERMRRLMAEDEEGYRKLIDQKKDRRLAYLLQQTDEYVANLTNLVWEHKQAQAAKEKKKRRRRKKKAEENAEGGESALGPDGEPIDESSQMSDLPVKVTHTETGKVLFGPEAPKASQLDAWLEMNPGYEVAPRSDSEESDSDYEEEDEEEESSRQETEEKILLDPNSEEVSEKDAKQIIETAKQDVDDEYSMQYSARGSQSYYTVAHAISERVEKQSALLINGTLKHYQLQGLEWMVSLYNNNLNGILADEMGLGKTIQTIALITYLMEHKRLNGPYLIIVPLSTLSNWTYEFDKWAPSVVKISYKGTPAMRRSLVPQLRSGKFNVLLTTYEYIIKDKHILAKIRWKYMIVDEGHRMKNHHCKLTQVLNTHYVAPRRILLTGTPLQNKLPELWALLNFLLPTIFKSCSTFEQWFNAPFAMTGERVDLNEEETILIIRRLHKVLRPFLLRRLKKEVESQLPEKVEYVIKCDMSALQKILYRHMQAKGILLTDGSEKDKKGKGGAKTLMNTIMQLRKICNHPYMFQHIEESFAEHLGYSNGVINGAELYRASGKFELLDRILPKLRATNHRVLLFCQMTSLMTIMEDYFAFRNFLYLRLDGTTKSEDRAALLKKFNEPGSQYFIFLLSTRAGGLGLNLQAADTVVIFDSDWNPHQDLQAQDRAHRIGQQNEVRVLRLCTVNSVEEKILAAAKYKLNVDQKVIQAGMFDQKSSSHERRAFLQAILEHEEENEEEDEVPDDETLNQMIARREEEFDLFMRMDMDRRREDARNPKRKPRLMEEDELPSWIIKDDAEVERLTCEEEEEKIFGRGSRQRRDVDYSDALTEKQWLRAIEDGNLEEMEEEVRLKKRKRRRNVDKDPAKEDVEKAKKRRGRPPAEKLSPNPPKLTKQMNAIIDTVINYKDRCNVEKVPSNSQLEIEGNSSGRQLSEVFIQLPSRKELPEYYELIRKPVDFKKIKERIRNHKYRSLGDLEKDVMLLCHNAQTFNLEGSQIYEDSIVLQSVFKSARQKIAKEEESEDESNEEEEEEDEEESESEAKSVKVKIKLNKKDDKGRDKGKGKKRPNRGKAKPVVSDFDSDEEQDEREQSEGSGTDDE
UniProt P51532, whole entry: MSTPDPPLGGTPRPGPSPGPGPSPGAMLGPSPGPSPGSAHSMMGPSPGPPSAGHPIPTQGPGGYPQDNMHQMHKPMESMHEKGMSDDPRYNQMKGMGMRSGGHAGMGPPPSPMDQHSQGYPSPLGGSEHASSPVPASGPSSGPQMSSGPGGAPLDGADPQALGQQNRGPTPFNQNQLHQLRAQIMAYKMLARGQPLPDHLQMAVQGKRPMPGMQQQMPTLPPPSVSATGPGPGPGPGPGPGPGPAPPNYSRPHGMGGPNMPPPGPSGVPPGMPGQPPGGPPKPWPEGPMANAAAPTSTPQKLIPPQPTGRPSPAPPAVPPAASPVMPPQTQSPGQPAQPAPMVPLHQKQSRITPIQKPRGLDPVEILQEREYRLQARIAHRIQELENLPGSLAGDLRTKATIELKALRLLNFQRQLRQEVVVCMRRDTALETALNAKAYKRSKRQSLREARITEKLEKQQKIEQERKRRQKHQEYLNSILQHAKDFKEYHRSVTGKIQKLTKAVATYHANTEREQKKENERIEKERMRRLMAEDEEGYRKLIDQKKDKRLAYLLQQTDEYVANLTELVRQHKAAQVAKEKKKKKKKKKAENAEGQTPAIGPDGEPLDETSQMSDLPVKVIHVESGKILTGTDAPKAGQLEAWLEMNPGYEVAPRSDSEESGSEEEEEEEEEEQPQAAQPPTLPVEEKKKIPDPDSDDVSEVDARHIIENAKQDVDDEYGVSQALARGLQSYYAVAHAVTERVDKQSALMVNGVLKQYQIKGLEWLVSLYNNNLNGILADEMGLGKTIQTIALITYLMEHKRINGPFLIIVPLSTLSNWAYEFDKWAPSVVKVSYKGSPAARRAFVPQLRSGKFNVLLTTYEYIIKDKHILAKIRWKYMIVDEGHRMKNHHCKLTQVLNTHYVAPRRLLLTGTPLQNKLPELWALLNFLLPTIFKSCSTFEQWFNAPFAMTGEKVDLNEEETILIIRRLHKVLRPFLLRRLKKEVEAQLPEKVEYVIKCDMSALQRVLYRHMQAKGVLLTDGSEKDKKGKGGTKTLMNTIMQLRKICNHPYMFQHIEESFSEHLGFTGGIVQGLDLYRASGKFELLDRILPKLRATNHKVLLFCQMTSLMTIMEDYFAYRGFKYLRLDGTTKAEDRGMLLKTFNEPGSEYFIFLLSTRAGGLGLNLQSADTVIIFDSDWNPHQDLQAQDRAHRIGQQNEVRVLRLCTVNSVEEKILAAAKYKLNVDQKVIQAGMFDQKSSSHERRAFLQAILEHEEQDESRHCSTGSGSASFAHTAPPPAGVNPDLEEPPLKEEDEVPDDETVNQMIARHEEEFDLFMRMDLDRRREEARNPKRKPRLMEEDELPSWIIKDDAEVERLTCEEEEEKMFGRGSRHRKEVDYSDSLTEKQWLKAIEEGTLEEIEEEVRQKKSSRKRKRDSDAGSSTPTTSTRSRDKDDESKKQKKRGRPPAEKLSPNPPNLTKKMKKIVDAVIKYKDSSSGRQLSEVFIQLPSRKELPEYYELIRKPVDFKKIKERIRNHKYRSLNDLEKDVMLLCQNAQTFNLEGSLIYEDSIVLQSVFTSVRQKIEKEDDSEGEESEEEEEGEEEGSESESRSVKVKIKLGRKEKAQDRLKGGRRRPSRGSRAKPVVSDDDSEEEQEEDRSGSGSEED

Columns and labels:
BRM = BRM (Homo sapiens, UniProt P51531); assay: ATPase catalytic activity assay (ADP-Glo), BRM; type: biochemical; conditions: Table 10; for Ratio (BRG1 IC50 (μM) divided by BRM IC50 (μM)): ATPase assay, selectivity BRG1/BRM; for IC50: read-out: BRM IC50, ATPase catalytic activity assay (ADP-Glo)
BRG-1 = BRG-1 (Homo sapiens, UniProt P51532); assay: ATPase catalytic activity assay (ADP-Glo), BRG-1; conditions: read-out: BRG1 IC50, Table 10

Ratio (BRG1 IC50 (μM) divided by BRM IC50 (μM)) (BRM)	IC50 (BRM)	IC50 (BRG-1)	SMILES
10.70	7.9 nM	84.5 nM	COc1nc(C(C)(F)F)ccc1-c1ccc2cnc(CNC(=O)c3ccc4c(c3)S(=O)(=O)[C@@H](F)CCO4)cc2n1
21.51	1.9 nM	39.9 nM	C[C@@H]1C[C@H]1c1ccc2c(n1)N(c1ccc3cnc(CNC(=O)c4cc(F)c5c(c4)S(=O)(=O)[C@@H](F)CCO5)cc3n1)CCO2
